The test concerns the target NLRP3 (Homo sapiens, UniProt Q96P20). As to the kind of experiment: Measurement of IL-1β production in PMA-differentiated THP-1 cells (NLRP3 hIL1B). As to conditions: read-out: NLRP3 hILIB IC50. As to the method:
Measurement of IL-1β Production in PMA-Differentiated THP-1 Cells
THP-1 cells were purchased from the American Type Culture Collection and sub-cultured according to instructions from the supplier. Prior to experiments, cells were cultured in RPMI 1640 containing 10% heat inactivated FBS, penicillin (100 units/ml) and streptomycin (100 μg/ml), and maintained in log phase prior to experimental setup. Prior to the experiment THP-1 were treated with PMA (Phorbol 12-myristate 13-acetate) ([…]) for 24 hours. The day of the experiment the media was removed and attaching cells were treated with trypsin for 2 minutes, cells were then collected, washed with PBS (phosphate buffer saline), spin down, resuspended in 2% heat inactivated FBS with RPMI at a concentration of 1×10^6 cells/ml, and 100 μl was plated in a 96 well plate. Compounds were dissolved in dimethyl sulfoxide (DMSO) and added to the culture medium to achieve desired concentration (e.g. 100, 30, 10, 3, 1, 0.3 or 0.1 μM). Cells were incubated with compounds for 4 hours. Cell free supernatant was collected and the production of IL-1β was evaluated by ELISA. […]
THP-1 cells were purchased from the American Type Culture Collection and sub-cultured according to instructions from the supplier. […] Cell free supernatant was collected and the production of IL-1β was evaluated by ELISA. […]

Sequences of proteins named here, by UniProt entry; tags and fusion partners are left off.
UniProt Q96P20, whole entry: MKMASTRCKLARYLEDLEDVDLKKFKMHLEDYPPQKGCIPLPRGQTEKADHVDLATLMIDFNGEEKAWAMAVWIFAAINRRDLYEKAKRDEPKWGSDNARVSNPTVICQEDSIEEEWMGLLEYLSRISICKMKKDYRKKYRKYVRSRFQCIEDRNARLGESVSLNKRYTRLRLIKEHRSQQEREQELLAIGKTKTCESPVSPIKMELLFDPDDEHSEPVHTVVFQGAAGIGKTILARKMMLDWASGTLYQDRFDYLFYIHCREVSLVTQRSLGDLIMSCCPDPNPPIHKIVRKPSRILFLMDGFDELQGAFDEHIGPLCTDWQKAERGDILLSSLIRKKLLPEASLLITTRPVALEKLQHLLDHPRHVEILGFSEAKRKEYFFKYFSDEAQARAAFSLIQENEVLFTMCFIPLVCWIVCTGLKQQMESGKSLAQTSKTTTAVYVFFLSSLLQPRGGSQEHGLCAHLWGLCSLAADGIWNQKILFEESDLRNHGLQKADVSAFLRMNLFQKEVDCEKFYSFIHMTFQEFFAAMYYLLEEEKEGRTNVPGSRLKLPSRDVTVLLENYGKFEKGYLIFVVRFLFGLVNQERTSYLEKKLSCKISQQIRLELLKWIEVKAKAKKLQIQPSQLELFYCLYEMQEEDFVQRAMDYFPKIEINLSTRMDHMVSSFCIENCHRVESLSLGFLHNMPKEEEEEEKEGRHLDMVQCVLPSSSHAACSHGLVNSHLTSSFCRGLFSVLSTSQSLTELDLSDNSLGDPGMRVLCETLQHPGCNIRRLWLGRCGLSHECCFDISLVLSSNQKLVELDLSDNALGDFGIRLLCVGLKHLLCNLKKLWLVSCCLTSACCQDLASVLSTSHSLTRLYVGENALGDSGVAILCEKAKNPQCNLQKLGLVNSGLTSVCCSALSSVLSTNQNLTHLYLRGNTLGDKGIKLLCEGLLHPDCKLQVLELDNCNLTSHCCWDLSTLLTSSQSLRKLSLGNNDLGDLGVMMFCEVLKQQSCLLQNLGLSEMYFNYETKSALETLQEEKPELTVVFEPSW

pIC50: −log10 of the molar value.

In general, pIC50 refers to the IC50 on a negative log10 scale, so that one unit is a factor of ten. On to `Nc1nc2cc(-c3cc[nH]n3)ccc2c2c1nc(CN1CC(F)(F)C1)n2C1CC1`, for which the pIC50 is 6.96.

Values taken from patent US12201627B2, “NLRP3 modulators” (Innate Tumor Immunity, Inc., priority 2018, dated 2025).
